Experimental data from ChEMBL document CHEMBL1144215, “N-Propylnoraporphin-11-O-yl carboxylic esters as potent dopamine D(2) and serotonin 5-HT(1A) receptor dual ligands” (Bioorg Med Chem, 2008).
pKi: −log10 of the molar value.

Amino acid sequences for entries named in this document (tags omitted).
UniProt P14416, whole entry: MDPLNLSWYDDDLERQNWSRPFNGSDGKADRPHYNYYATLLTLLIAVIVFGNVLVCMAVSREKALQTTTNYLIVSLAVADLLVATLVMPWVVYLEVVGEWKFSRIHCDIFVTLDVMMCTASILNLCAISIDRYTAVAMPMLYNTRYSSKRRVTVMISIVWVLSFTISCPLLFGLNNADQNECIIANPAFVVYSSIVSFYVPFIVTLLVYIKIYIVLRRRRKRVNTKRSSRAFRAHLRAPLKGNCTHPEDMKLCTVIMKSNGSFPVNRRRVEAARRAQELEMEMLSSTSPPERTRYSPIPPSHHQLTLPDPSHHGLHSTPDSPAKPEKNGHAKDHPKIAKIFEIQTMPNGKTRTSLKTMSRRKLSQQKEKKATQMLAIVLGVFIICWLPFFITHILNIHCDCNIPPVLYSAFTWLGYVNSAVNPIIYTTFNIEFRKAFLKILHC

Target: D(2) dopamine receptor (Homo sapiens, UniProt P14416)
Test: Displacement of [3H]Spiperone from human dopamine D2 receptor expressed in HEK293 cells

CCCN1CCc2cccc3c2[C@H]1Cc1cccc(O)c1-3
pKi: < 5.00
